Assay: Selectivity ratio of IC50 for Aurora B to IC50 for Aurora A

- Ratio IC50: 190 µM
SMILES: O=C(Nc1ccccc1Cl)c1ccc(Nc2nc(Nc3ccc(O)cc3)ncc2F)cc1

Reference: ChEMBL document CHEMBL1138512, “A class of 2,4-bisanilinopyrimidine Aurora A inhibitors with unusually high selectivity against Aurora B” (J Med Chem, 2009)
